# The entries are a selection whose mix differs from that of the whole data set. These assays gave more results; the selection is not random. The list shows a part of the results. For part of these data: Entries with a potency or affinity are not part of this list. Active and inactive are the calls of the source.
# By UniProt entry, the sequences of proteins in these tests, tags left out. Where a name states a change or a piece, a line headed by the entry shows the natural chain unless it says otherwise.
# UniProt P84022, whole entry, looked up: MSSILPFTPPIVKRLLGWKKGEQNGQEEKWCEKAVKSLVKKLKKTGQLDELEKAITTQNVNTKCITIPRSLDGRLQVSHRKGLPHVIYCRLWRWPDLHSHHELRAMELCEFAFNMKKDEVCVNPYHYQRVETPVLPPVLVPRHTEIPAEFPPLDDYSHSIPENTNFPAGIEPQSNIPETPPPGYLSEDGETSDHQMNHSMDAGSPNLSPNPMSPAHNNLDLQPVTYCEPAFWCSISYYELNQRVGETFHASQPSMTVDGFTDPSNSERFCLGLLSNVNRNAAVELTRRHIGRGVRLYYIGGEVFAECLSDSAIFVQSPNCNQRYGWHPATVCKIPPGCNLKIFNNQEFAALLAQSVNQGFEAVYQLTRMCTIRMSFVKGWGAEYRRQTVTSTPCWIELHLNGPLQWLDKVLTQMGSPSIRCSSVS
# UniProt Q16236, whole entry, looked up: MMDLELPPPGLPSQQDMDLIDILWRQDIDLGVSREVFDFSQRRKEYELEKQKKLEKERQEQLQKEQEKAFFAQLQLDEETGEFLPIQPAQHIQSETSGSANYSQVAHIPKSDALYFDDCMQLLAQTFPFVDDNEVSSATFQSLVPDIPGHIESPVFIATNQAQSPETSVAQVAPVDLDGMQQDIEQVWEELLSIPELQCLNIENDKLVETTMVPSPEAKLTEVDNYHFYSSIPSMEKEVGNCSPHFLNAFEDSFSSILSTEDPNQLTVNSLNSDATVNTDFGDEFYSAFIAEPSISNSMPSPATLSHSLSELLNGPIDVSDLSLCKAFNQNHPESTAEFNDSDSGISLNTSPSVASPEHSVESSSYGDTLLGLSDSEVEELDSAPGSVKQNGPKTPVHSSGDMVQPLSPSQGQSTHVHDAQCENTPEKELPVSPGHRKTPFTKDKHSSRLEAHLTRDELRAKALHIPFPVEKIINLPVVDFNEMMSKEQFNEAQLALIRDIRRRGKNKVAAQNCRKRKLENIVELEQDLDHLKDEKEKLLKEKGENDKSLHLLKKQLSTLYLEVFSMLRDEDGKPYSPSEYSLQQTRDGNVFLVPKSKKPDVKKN
# UniProt Q9NUW8, whole entry, looked up: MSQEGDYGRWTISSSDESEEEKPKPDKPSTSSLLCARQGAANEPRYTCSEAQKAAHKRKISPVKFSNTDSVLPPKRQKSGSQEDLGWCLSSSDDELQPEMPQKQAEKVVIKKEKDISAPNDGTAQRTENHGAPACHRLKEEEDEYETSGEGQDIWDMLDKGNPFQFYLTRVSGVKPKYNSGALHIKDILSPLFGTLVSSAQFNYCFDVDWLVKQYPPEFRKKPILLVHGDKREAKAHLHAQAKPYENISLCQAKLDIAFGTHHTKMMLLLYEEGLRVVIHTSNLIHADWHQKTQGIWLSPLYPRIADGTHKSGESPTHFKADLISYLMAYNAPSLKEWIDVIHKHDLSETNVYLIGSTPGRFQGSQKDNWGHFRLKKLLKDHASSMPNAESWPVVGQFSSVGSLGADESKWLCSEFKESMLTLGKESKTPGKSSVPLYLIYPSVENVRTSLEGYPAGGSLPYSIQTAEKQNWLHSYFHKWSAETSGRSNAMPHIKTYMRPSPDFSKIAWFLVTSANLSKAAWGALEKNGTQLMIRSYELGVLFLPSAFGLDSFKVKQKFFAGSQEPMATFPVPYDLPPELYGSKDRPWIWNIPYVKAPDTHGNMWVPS
# UniProt Q13148, whole entry, looked up: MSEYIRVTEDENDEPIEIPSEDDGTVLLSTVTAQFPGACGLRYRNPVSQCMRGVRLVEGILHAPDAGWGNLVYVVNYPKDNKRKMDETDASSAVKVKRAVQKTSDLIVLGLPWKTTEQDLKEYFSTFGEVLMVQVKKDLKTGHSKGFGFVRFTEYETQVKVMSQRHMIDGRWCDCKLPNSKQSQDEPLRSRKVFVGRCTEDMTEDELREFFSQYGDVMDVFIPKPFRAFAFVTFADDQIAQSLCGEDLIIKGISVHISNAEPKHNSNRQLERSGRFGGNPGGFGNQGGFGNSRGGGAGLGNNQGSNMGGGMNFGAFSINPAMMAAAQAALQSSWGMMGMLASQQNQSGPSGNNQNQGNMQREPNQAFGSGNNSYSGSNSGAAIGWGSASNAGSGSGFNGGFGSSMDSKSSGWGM
# UniProt P80244: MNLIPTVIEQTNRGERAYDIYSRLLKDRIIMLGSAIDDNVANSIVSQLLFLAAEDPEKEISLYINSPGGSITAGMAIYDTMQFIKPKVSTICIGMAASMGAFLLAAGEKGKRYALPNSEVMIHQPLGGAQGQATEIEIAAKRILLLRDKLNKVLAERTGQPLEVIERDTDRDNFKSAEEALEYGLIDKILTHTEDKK
# UniProt Q9HCT0: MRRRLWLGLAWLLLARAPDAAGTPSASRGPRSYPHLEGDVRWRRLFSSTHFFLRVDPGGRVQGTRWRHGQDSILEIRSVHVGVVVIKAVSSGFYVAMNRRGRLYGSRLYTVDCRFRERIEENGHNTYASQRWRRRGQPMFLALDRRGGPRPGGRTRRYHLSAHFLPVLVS
# UniProt O95398: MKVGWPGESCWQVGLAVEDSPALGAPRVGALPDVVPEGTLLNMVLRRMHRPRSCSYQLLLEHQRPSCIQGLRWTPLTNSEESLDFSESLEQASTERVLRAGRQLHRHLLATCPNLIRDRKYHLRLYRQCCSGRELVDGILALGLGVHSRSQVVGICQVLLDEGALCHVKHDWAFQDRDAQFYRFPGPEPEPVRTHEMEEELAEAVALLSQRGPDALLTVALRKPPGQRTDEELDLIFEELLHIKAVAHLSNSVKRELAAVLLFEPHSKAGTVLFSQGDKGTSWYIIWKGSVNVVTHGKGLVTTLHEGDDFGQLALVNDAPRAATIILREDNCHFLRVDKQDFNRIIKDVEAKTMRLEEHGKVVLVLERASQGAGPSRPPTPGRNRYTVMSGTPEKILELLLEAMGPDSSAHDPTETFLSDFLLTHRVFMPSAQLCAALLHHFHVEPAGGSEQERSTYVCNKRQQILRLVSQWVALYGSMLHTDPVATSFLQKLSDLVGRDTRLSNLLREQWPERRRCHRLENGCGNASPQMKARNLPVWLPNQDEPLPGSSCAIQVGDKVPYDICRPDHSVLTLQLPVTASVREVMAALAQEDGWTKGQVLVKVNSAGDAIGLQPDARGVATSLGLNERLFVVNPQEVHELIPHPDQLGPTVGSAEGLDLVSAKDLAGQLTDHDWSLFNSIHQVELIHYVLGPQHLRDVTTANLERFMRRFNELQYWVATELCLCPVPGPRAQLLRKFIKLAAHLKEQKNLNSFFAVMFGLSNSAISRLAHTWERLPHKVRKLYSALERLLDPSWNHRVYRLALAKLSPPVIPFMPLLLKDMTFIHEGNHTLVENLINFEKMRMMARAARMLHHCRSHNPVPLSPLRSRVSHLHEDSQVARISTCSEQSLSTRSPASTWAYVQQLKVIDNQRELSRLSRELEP
# UniProt Q8WZA2: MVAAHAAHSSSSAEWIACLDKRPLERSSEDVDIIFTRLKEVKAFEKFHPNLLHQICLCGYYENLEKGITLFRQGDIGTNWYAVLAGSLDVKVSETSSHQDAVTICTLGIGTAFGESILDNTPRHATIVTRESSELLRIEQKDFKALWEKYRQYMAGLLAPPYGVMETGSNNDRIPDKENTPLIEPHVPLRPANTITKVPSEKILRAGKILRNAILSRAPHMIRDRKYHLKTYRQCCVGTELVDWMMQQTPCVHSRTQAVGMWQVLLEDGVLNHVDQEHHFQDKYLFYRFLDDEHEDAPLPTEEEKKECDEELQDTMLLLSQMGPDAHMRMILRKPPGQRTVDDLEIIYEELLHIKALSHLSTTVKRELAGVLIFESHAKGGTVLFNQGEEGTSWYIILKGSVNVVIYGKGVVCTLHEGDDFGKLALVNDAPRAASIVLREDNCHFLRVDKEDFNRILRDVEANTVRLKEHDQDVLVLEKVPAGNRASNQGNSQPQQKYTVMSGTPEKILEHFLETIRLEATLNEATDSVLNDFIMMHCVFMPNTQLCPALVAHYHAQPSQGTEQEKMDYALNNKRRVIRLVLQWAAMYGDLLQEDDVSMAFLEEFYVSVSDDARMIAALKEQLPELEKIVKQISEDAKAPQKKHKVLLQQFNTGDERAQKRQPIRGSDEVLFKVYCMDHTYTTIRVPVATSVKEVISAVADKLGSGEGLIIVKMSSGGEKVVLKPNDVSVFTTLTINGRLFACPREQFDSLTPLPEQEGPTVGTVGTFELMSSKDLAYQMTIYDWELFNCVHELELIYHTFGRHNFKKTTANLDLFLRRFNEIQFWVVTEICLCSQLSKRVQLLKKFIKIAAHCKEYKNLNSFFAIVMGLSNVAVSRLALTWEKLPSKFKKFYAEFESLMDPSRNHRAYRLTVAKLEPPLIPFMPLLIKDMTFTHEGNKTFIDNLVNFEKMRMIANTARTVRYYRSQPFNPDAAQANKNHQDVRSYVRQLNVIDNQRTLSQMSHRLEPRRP
# Tests used:
# [1] = target: Guanine nucleotide-binding protein G(s) subunit alpha isoforms short (Homo sapiens) (UniProt P63092); assay: qHTS for Agonist of gsp, the Etiologic Mutation Responsible for Fibrous Dysplasia/McCune-Albright Syndrome: qHTS.; type: functional
# HepG2 = assay: qHTS for Inhibitors of TGF-b: Cytotox Counterscreen. [Related pubchem assays (depositor defined):AID588855, AID588860]; type: functional; conditions: Homo sapiens
# [2] = target: Mothers against decapentaplegic homolog 3 (Homo sapiens) (UniProt P84022); assay: qHTS for Inhibitors of TGF-b. [Related pubchem assays (depositor defined):AID588856, AID588860]; type: functional
# [3] = target: Nuclear factor erythroid 2-related factor 2 (Homo sapiens) (UniProt Q16236); assay: qHTS of Nrf2 Activators.; type: functional
# [4] = target: Glycoprotein hormones alpha chain (Homo sapiens) (UniProt P01215); assay: qHTS for Activators of Integrin-Mediated Alleviation for Muscular Dystrophy.; type: functional
# [5] = target: Tyrosyl-DNA phosphodiesterase 1 (Homo sapiens) (UniProt Q9NUW8); assay: qHTS for Inhibitors of human tyrosyl-DNA phosphodiesterase 1 (TDP1): qHTS in cells in absence of CPT.; type: functional
# [6] = target: Tyrosyl-DNA phosphodiesterase 1 (Homo sapiens) (UniProt Q9NUW8); assay: qHTS for Inhibitors of human tyrosyl-DNA phosphodiesterase 1 (TDP1): qHTS in cells in presence of CPT.; type: functional
# [7] = target: Alpha-synuclein (Homo sapiens) (UniProt P37840); assay: qHTS of alpha-syn Inhibitors.; type: functional
# [8] = target: TAR DNA-binding protein 43 (Homo sapiens) (UniProt Q13148); assay: qHTS of TDP-43 Inhibitors.; type: functional
# [9] = target: ATP-dependent Clp protease proteolytic subunit (Bacillus subtilis (strain 168)) (UniProt P80244); assay: qHTS Assay for Activators of ClpP.; type: functional
# [10] = target: Guanine nucleotide-binding protein G(s) subunit alpha isoforms short (Homo sapiens) (UniProt P63092); assay: qHTS for Antagonists of gsp, the Etiologic Mutation Responsible for Fibrous Dysplasia/McCune-Albright Syndrome: qHTS.; type: functional
# [11] = target: Fibroblast growth factor 22 (Homo sapiens) (UniProt Q9HCT0); assay: Small Molecule Inhibitors of FGF22-Mediated Excitatory Synaptogenesis & Epilepsy Measured in Biochemical System Using RT-PCR - 7012-01_Inhibitor_Dose_CherryPick_Activity.; type: functional
# [12] = target: Rap guanine nucleotide exchange factor 3 (Homo sapiens) (UniProt O95398); assay: qHTS for Antagonist of cAMP-regulated guanine nucleotide exchange factor 3 (EPAC1): primary screen.; type: functional
# [13] = target: Rap guanine nucleotide exchange factor 4 (Homo sapiens) (UniProt Q8WZA2); assay: qHTS for Antagonist of cAMP-regulated guanine nucleotide exchange factor 2 (EPAC2): primary screen.; type: functional
# [14] = target: Nuclear factor erythroid 2-related factor 2 (Homo sapiens) (UniProt Q16236)
smiles,measurement,setting,value
Cc1[nH]c2c(C)c([N+](=O)[O-])c(C)c([N+](=O)[O-])c2c1[N+](=O)[O-],GI50,NCI-H23,inactive: 3.48 µM
same,GI50,RXF 393,inactive: 9.59 µM
O=C(O)COc1ccc([As](=O)(O)O)cc1[N+](=O)[O-],Potency,[1],inactive
O=[N+]([O-])C1([N+](=O)[O-])CCCc2nonc21,GI50,NCI-H23,inactive: 20.7 µM
same,GI50,RXF 393,inactive: 40.7 µM
O=[N+]([O-])c1cc([N+](=O)[O-])c(Nc2ccc(Cl)cc2)c([N+](=O)[O-])c1,Potency,HepG2,active: 11.2 µM
same,Potency,[2],active: 14.1 µM
same,Potency,[3],active: 12.6 µM
same,Potency,[4],inactive
same,Potency,[5],active: 1.03 µM
same,Potency,[6],active: 1.46 µM
same,Potency,[7],inactive
same,Potency,[8],inactive
O=[N+]([O-])C1([N+](=O)[O-])COCOC1,GI50,NCI-H23,inactive: 50.9 µM
same,GI50,RXF 393,inactive: > 100 µM
O=C(OC1CN2CCC1CC2)c1ccccc1 (centres undefined),Potency,[9],inactive
Cc1ccc([N+](=O)[O-])c(C[N+](C)(CCCl)CCCl)c1,GI50,NCI-H23,inactive: 16.3 µM
same,GI50,RXF 393,inactive: 11.4 µM
Cc1ccc(OP(=O)(Nc2ccc([N+](=O)[O-])cn2)Oc2ccc(C)cc2)cc1,Potency,[1],inactive
O[C@H]1[C@@H](O)CC2CCN3Cc4cc5c(cc4[C@H]1C23)OCO5 (some centres undefined),GI50,NCI-H23,inactive: > 100 µM
same,GI50,RXF 393,inactive: > 100 µM
Cc1ccc2ccc(C)c(C)c2c1.O=[N+]([O-])c1cc([N+](=O)[O-])c(O)c([N+](=O)[O-])c1O,GI50,NCI-H23,inactive: > 100 µM
same,GI50,RXF 393,inactive: > 100 µM
COP(C)(=O)C(N)Cc1ccccc1 (centres undefined),GI50,NCI-H23,inactive: > 100 µM
COC(=O)C1(C)COP(=O)(NCc2ccccc2)OC1 (centres undefined),Potency,[1],inactive
O=[As](O)(O)O,GI50,NCI-H23,inactive: > 100 µM
same,GI50,RXF 393,inactive: > 100 µM
COc1ccc([N+](=O)[O-])c(C[N+](C)(CCCl)CCCl)c1,GI50,NCI-H23,inactive: > 100 µM
same,GI50,RXF 393,inactive: > 100 µM
CCCCCCCCCCCCCNCC(C)O (centres undefined),GI50,NCI-H23,inactive: 15.4 µM
O=C(Nc1cc([As](=O)(O)O)ccc1O)c1ccccc1,Potency,[1],inactive
Cc1ccc2ccc3ccc4ccccc4c3c2c1.O=C1c2cc([N+](=O)[O-])ccc2-c2c1cc([N+](=O)[O-])cc2[N+](=O)[O-],GI50,NCI-H23,inactive: 3.16 µM
same,GI50,RXF 393,inactive: 1.73 µM
ClCCSc1c2ccccc2nc2ccccc12,GI50,NCI-H23,inactive: 10.3 µM
same,GI50,RXF 393,inactive: 15.3 µM
O=C1CCN2CCCC12 (centres undefined),GI50,NCI-H23,inactive: > 100 µM
same,GI50,RXF 393,inactive: > 100 µM
COc1ccc2nccc(C=O)c2c1,GI50,NCI-H23,inactive: 7.03 µM
same,GI50,RXF 393,inactive: 87.5 µM
COc1cc(C2NCCC3(OCCO3)C2(C)C)cc(OC)c1OC (centres undefined),Potency,[1],inactive
O=C1Nc2ccc([N+](=O)[O-])cc2/C1=N/Nc1ccc([N+](=O)[O-])cc1[N+](=O)[O-],GI50,NCI-H23,inactive: 25.9 µM
same,GI50,RXF 393,inactive: 19.4 µM
COc1ccc(C[N+](C)(CCCl)CCCl)c([N+](=O)[O-])c1,GI50,NCI-H23,inactive: > 100 µM
same,GI50,RXF 393,inactive: > 100 µM
C[S+](N)(=O)CCC(N)P(=O)(O)O (centres undefined),GI50,NCI-H23,inactive: > 100 µM
CCCC[S+](N)(=O)CCC(N)P(=O)(O)O (centres undefined),GI50,NCI-H23,inactive: > 100 µM
Nc1ccc([As](=O)(O)c2ccc(N)cc2)cc1,Potency,[10],inactive
CN(CCCl)Cc1cc(Cl)c(NC2=NCCN2)c(Cl)c1,Potency,[10],inactive
ClCCN(CCCl)c1ccccc1,Potency,[5],active: 1.41 µM
same,Potency,[6],active: 1.26 µM
CCN(CC)CCCNc1ccccc1[N+](=O)[O-],AbsAC1,[11],active: 9.02 µM
same,Potency,[12],inactive
CCOC(=O)C(CC)C1=NC(C)(C)Cc2ccccc21 (centres undefined),Potency,[13],active: 17.8 µM
O=[N+]([O-])c1ccccc1[N+](=O)[O-],Potency,[14],active: 19.3 µM
